Tested on: colchicine site on tubulin
Experiment: Inhibition of [3H]colchicine binding to tubulin
Details: 5 μM compound

COc1ccc(/C=C\c2cc(OC)c(OC)c(OC)c2)cc1O [CA-4, combretastatin A-4]
Inhibition of colchicine binding % inhibition ± SD: 99 ± 0.2%

— patent publication US9777012B2, “Substituted furo[2,3-d]pyrimidines as multi-targeted receptor tyrosine kinase inhibitors and microtubule targeting antitumor agents” (Duquesne University of the Holy Spirit, priority 2014, dated 2017)
